Assay results reported in patent publication US5973110A, “Cytotoxic T-lymphocyte antigen as cysteine protease inhibitor” (Bayer Corporation, priority 1995, dated 1999).

Biological target: human liver Cathepsin L (human, UniProt P07711)
Test: enzyme inhibition, Dixon plot of 1/V vs. CTLA-2β concentration at 2.5 and 5 uM Z-Phe-Arg-AMC

Ki: 22 nM
B1: recombinant (murine) CTLA-2β, monomeric form (other)
chain: MAAPSPDPSLDNEWKEWKTTFAKAYSLDEERHRRLMWEENKKKIEAHNADYERGKTSFYMGLNQFSDLTPEEFRTNCCGSSMCRGEMAPDLPEYEDLGKNSYLTPGRAQPE
